The data set relates to patients with acute anterior STEMI. Description: DELTA MI trial: intracoronary KAI-9803 during primary PCI for acute anterior STEMI. The settings on record: intracoronary injection during primary PCI for STEMI. How it is done: Safety and biomarker end points were assessed.
The following example is a clinical treatment of acute ST-elevation myocardial infarction (STEMI) using the compositions and methods provided in the invention.
Patients were recommended to receive aspirin (162-325 mg orally), a thienopyridine loading dose (clopidogrel 300-600 mg or ticlopidine 500 mg), unfractionated heparin, and glycoprotein IIb-IIIa inhibitors during PCI. […] After verifying the final angiographic inclusion criteria during diagnostic angiography, randomization and study drug preparation occurred in the catheterization laboratory before the beginning of the PCI procedure.
Study drug was reconstituted into a clear solution at 1 of 4 concentrations using serial dilutions with 0.9% sodium chloride solution. Study drug was administered during PCI in the following sequence. First, the guidewire was passed across the obstruction in the left anterior descending (LAD) infarct vessel and an over-the-wire balloon catheter was positioned at the level of the obstruction. Second, the guidewire was removed, and dilute contrast was injected to confirm positioning of the catheter tip downstream from the obstruction and to assess patency of the distal vessel. […] Fourth, the guidewire was readvanced through the catheter into the distal vessel, and the balloon was deflated. […]

In the case of `CC(C)C[C@H](NC(=O)[C@H](CO)NC(=O)CNC(=O)[C@H](CC(C)C)NC(=O)[C@H](CCC(=O)O)NC(=O)[C@H](Cc1ccc(O)cc1)NC(=O)[C@H](CO)NC(=O)[C@H](CC(N)=O)NC(=O)[C@H](Cc1ccccc1)NC(=O)[C@H](CO)NC(=O)[C@@H](N)CSSC[C@H](N)C(=O)N[C@@H](Cc1ccc(O)cc1)C(=O)NCC(=O)N[C@@H](CCCNC(=N)N)C(=O)N[C@@H](CCCCN)C(=O)N[C@@H](CCCCN)C(=O)N[C@@H](CCCNC(=N)N)C(=O)N[C@@H](CCCNC(=N)N)C(=O)N[C@@H](CCC(N)=O)C(=O)N[C@@H](CCCNC(=N)N)C(=O)N[C@@H](CCCNC(=N)N)C(=O)N[C@@H](CCCNC(=N)N)C(=O)O)C(=O)O` [KAI-9803], the “safety and tolerability profile” value was “acceptable safety and tolerability profile”.

The values above are taken from patent US20090318351A1, “METHOD OF TREATING ACUTE ST-ELEVATION MYOCARDIAL INFARCTION WITH A DELTA PKC ANTAGONIST” (priority 2008, published 2009).
